Assay results reported in patent publication US9187397B2 (STC.UNM, priority 2004, dated 2015).
pIC50: −log10 of the molar value. Like-named read-outs stand apart in the source and are kept apart here.

Test system: NF-κB
Experiment: NF-κB luciferase reporter cellular assay (293T/NF-κB-luc, TNFα-stimulated)
Type: cell-based
Conditions: Homo sapiens, HEK-293T, inhibition of TNFα-induced NF-κB activation
Protocol: The cell line is derived from human 293T embryonic kidney cells expressing the large T antigen containing a chromosomal integration of a luciferase reporter construct regulated by 6 copies of the NF-κB response element (Panomics, Inc.). This stable clonal cell line is obtained by co-transfection of pNF-κB-luc and pTK-hyg containing plasmids followed by the addition of hygromycin (200 μg/ml) to maintain cell selection.
The cell line was grown in a humidified atmosphere at 37° C. in 5% CO2/95% air and maintained in Dulbecco's Modified Eagle's Medium (DMEM-high glucose containing 4 mM glutamine) containing fetal bovine serum (FBS, 10%), sodium pyruvate (1 mM), penicillin (100 units/ml), streptomycin (100 μg/ml) and hygromycin (100 μg/m) to maintain cell selection (Gibco/Invitrogen).
The 293T/NF-κB-luc cells were re-plated 24 hr prior to treatment, into 24-well cell culture plates in media without hygromycin, to prevent it from interfering with the assay. The cells were then allowed to grow and attach, to the wells, for 24 hr in a humidified atmosphere at 37° C. in 5% CO2/95% air. […] The cells then were placed again in a humidified atmosphere at 37° C. in 5% CO2/95% air for 7 hr. Plate wells were gently washed with PBS, pH 7.4, and lysed with passive lysis buffer (1×, 100 μl, Promega). The subsequent chemiluminescent lysates were analyzed with the Luciferase Assay System (Promega) utilizing a TD-20/20 luminometer. The relative light units (photons) were determined by the addition of firefly luciferase substrate (75 μl) to cell lysate (10 μl). The light units were then normalized to the amount of protein in the well (mg/ml) with BCA™ Protein Assay Kit (Pierce) and standardized to percent of control (TNFα).
This assay utilized a commercially available cell line (Panomics 293T-luc cellular assay) developed for screening inhibitors of NF-κB. This cell line is stably transfected with a luciferase reporter controlled by an NF-κB dependent promoter. The cell is stimulated with tumor necrosis factor alpha (TNFα) which activates NF-κB. NF-κB then binds to one of six promoter regions on the cell's DNA leading to the production of a luciferase enzyme. Luciferin is added to the cell lysates and the luciferase enzyme catalyzes a cleavage of luciferin leading to the emission of light.
This cell line was developed by Panomics for screening potential inhibitors of NF-κB. Cells are stimulated with TNF-α to express luciferase, whose activity is monitored in a chemiluminometer.
An NF-κB reporter stable cell line from human 293T embryonic kidney cells (293T/NFκB-luc) (Panomics) was grown in a humidified atmosphere at 37° C. in 5% CO2/95% air. The cells were maintained in Dulbecco's Modified Eagle's Medium (DMEM—high glucose containing 4 mM glutamine) supplemented with 10% fetal bovine serum (FBS), 1 mM sodium pyruvate, 100 units/ml penicillin, 100 μg/m streptomycin and 100 μg/ml hygromycin (Gibco/Invitrogen, Carlsbad, Calif.)) to maintain cell selection. One day prior to treatment, the 293T/NFκB-luc cells were plated into 24-well cell culture plates (Costar) at approximately 70% confluency in the above media without hygromycin. The following day cells were fed fresh media 1 hour prior to treatment. […] The cells were placed again in a humidified atmosphere at 37° C. in 5% CO2/95% air for 7 hours. […] The subsequent lysates were analyzed with the Luciferase Assay System (Promega) utilizing a TD-20/20 luminometer (Turner Designs). […]

[1] = 293T/NF-κB-luc cells, Table 5, read-out: IC50

Compound: O=C(/C=C/c1ccccc1O)/C=C/c1ccccc1O [20q]
- pIC50 [1]: 5.38
- pIC50 (Table 10, read-out: NF-κB IC50): 5.38

Compound: O=C(/C=C/c1ccncc1)/C=C/c1ccncc1 [compound 29]
- pIC50 [1]: 5.46
- pIC50 (Table 10, read-out: NF-κB IC50): 5.46

Compound: COc1cc(/C=C/C(=O)/C=C(O)/C=C/c2ccc(O)c(OC)c2)ccc1O [analog 3a, 1,7-Bis(4-hydroxy-3-methoxyphenyl)-1,6-heptadiene-3,5-dione]
- pIC50 [1]: 5.09
